# Ab-14 heavy chain CDR variants: yeast mating affinities

Target peptide (SARS-CoV-2 spike, HR2 region): PDVDLGDISGINAS

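The variants were designed computationally from a first round of random CDR variants and then made and measured. Their group label is 14H_En_Gen (En: ensemble of fine-tuned language models; Gen: genetic algorithm). AlphaSeq pools MATa yeast showing the antibodies with MATalpha yeast showing the peptide. The frequency of each diploid, read from paired DNA barcodes, reflects how well the two displayed proteins bind. Scores were corrected for input abundance and mapped to Kd with protein pairs of known affinity run in the same pool. Each pool was mated in six replicate cultures.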

The variants keep the light chain, the linker and the frameworks of Ab-14 (scFv order VH, a 15-residue (Gly4Ser)3 linker, VL).
VH: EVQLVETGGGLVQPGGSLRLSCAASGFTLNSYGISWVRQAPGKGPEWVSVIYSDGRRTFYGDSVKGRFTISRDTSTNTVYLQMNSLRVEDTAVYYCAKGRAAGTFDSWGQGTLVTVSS
VL: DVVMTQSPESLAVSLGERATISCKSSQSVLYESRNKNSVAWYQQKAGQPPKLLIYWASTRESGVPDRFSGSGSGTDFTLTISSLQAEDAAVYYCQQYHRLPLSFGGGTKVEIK

Variants are written as CDR1, CDR2 and CDR3 of the heavy chain (limits as in the source). Parent: GFTLNSYGIS, VIYSDGRRTFYGDSVK, GRAAGTFDS. Values are log10 of the apparent Kd in nM; lower means stronger binding. A pair that was not seen in that replicate is written "ND"; this usually means weak binding, but a binder can also be missed.

CDR-H1	CDR-H2	CDR-H3	log10 Kd (nM) by replicate	empty controls
GFDLNEYGIS	VIYADGVRKAYADDVK	GNVAGTFDQ	-0.11 -0.31 -0.55 -0.55 -0.60 -0.45	0 of 18
GFDLNEYGIS	VIYADGMRTSYADSVK	GNNAGTFDM	0.02 -0.01 -0.16 -0.41 -0.04 -0.05	0 of 18
GFDLDEYGIS	VIYADGMRTAYSDSVK	GETAGTFDI	-0.31 -0.48 -0.59 -0.51 -0.54 -0.43	0 of 18
GFDLDEYGIS	VIYADGKRTAYTDSVK	GEVAGTFDT	0.07 -0.76 -0.84 -0.63 -0.03 -0.32	0 of 18
GFDLNEYGIS	VIYADGVRTAYADNVK	GETAGTFDL	-0.33 -0.75 -0.90 -1.42 -1.02 -0.92	1 of 18 (0.40)
GFDLNEYGIS	VIYADGVRTAYADSVK	GKNAGTFDV	-0.04 -0.18 -0.47 -0.34 -0.32 -0.33	0 of 18
GFDLEEYGIS	VIYADGQRTAYADSVK	GNVAGTFDL	0.01 -0.20 0.06 -0.28 -0.52 -0.16	1 of 18 (1.55)
GFDLNEYGIS	VIYADGKRTAYTDSVK	GNTAGTFDV	-0.79 -0.66 -0.74 -0.92 -0.76 -1.02	1 of 18 (2.24)
GFDLNEYGIS	VIYADGMRTAYVDSVK	GQNAGTFDI	-0.02 -0.19 -0.28 -0.18 -0.25 0.18	0 of 18
GFDLDEYGIS	VIYADGMRTAYSDSVK	GNQAGTFDQ	-0.11 -0.26 -0.35 -0.43 -0.26 -0.41	0 of 18
GFDLNEYGIS	VIYADGMRTAYSDSVK	GTVAGTFDL	-0.50 -0.49 -0.86 -0.65 -0.76 -0.47	0 of 18
GFDLNEYGIS	VIYADGIRTAYADDVK	GNQAGTFDV	-0.75 -0.72 -1.14 -1.18 0.01 0.25	0 of 18
GFDLNEYGIS	VIYADGRRTAYADDVK	GNEAGTFDV	0.31 -0.50 -0.45 -0.36 -0.33 -0.23	0 of 18
GFDLDEYGIS	VIYADGKRTAYSDSVK	GNNAGTFDL	-0.35 0.12 -0.22 -0.06 -0.47 0.50	0 of 18
GFDLNEYGIS	VIYADGQRKAYADSVK	GNNAGTFDV	-0.90 -1.09 -1.13 -1.34 -1.29 -0.90	0 of 18
GFDLDEYGIS	VIYADGRRTAYSDSVK	GENAGTFDI	-0.04 -0.23 -0.56 -0.37 -0.38 -0.56	0 of 18
GFDLDEYGIS	VIYADGKRTAYSDSVK	GNVAGTFDT	-0.12 -0.50 -0.53 -0.27 -0.46 -0.12	0 of 18
GFDLNEYGIS	VIYADGVRKAYADDVK	GNNAGTFDI	-0.23 -0.48 -0.70 -0.76 -0.61 -0.34	0 of 18
GFDLNEYGIS	VIYADGVRTAYADDVK	GNVAGTFDT	-0.05 -0.69 -0.55 -1.20 -0.55 -0.16	0 of 18
GFDLNEYGIS	VIYADGQRTAYVDSVK	GQNAGTFDV	-1.06 -0.98 -1.20 -1.27 -0.94 -0.95	0 of 18
GFDLDEYGIS	VIYADGKRQAYADSVK	GENAGTFDV	0.15 -0.04 -0.06 -0.03 0.08 0.54	0 of 18
GFDLEDYGIS	VIYADGMRTAYADSVK	GNNAGTFDV	ND 1.51 ND 2.46 0.36 1.67	0 of 18
GFDLDEYGIS	VIYADGQRTAYSDSVK	GEVAGTFDL	-0.05 -0.10 -0.31 -0.27 -0.34 -0.14	1 of 18 (3.26)
GFNLDEYGIS	VIYADGRRTAYADSVK	GNQAGTFDV	-1.54 -1.27 -0.71 -1.94 -1.50 -0.84	0 of 18
GFDLDEYGIS	VIYADGKRTAYSDSVK	GETAGTFDL	-0.45 -0.84 -0.69 -0.53 -0.94 -0.34	0 of 18
GFDLNEYGIS	VIYADGMRTFYADDVK	GEVAGTFDI	-1.02 -1.55 -1.39 -1.20 -1.33 -0.59	0 of 18
GFDLNEYGIS	VIYADGMRTAYSDDVK	GGNAGTFDV	-0.36 -0.70 -0.82 -0.82 -0.75 -0.50	0 of 18
GFDLDEYGIS	VIYADGKRTAYADDVK	GENAGTFDM	-0.03 -0.36 0.06 -0.45 -0.53 -0.02	0 of 18
GFDLDEYGIS	VIYADGRRTAYTDSVK	GNQAGTFDV	-2.37 -2.39 -2.42 -2.36 -2.49 -2.24	0 of 18
GFDLNEYGIS	VIYADGVRTAYADSVK	GNNAGTFDL	-0.43 -1.13 -0.91 -0.72 -0.62 -0.36	0 of 18
GFDLNEYGIS	VIYADGMRTYYADSVK	GNVAGTFDM	-0.27 -0.54 -0.39 -0.55 -0.66 -0.36	0 of 18
GFDLDEYGIS	VIYADGKRTAYVDSVK	GNEAGTFDV	-0.42 -0.73 -0.66 -0.66 -0.62 -0.57	0 of 18
GFDLNEYGIS	VIYADGSRTAYADSVK	GANAGTFDV	-0.26 -0.55 -0.65 -0.62 -0.74 -0.46	1 of 18 (1.57)
GFDLDEYGIS	VIYADGKRTYYADSVK	GENAGTFDV	0.59 0.29 0.13 0.33 -0.17 0.42	0 of 18
GFDLNEYGIS	VIYADGVRQAYADDVK	GNVAGTFDV	1.55 -0.12 0.16 -0.26 0.16 -0.07	0 of 18
GFDLNEYGIS	VIYADGSRTAYADSVK	GSNAGTFDV	-0.08 -0.42 -0.66 -0.62 -0.29 -0.62	1 of 18 (2.37)
GFDLDEYGIS	VIYADGQRTAYADSVK	GNNAGTFDT	-0.34 -0.37 -0.49 -0.65 -0.73 -0.44	0 of 18
GFDLDEYGIS	VIYADGKRTAYSDSVK	GQVAGTFDL	-0.05 -0.38 -0.64 -0.49 -0.42 -0.34	0 of 18
GFDLNEYGIS	VIYADGKRTAYADNVK	GNVAGTFDV	-0.22 -0.44 -0.61 -0.31 -0.13 -0.20	0 of 18
GFDLNEYGIS	VIYADGMRTAYADSVK	GETAGTFDI	0.02 0.75 0.33 0.21 -0.03 0.31	0 of 18
GFDLNEYGIS	VIYADGMRTAYADDVK	GQNAGTFDL	-0.38 -0.55 -0.84 -0.95 -0.29 0.08	0 of 18
GFDLNEYGIS	VIYADGVRTAYADSVK	GQVAGTFDI	-0.18 -0.28 -0.56 -0.67 -0.26 0.07	0 of 18
GFDLNEYGIS	VIYADGKRTAYADSVK	GNIAGTFDI	0.10 -0.45 -0.52 -0.57 -0.59 -0.07	0 of 18
GFDLNEYGIS	VIYADGIRTAYADDVK	GNNAGTFDV	0.82 0.54 0.21 0.65 0.73 0.83	0 of 18

Excerpt, the final 6 entries:

CDR-H1	CDR-H2	CDR-H3	log10 Kd (nM) by replicate	empty controls
GFDLNEYGIS	VIYADGKRTAYADNVK	GNVAGTFDV	-0.22 -0.44 -0.61 -0.31 -0.13 -0.20	0 of 18
GFDLNEYGIS	VIYADGMRTAYADSVK	GETAGTFDI	0.02 0.75 0.33 0.21 -0.03 0.31	0 of 18
GFDLNEYGIS	VIYADGMRTAYADDVK	GQNAGTFDL	-0.38 -0.55 -0.84 -0.95 -0.29 0.08	0 of 18
GFDLNEYGIS	VIYADGVRTAYADSVK	GQVAGTFDI	-0.18 -0.28 -0.56 -0.67 -0.26 0.07	0 of 18
GFDLNEYGIS	VIYADGKRTAYADSVK	GNIAGTFDI	0.10 -0.45 -0.52 -0.57 -0.59 -0.07	0 of 18
GFDLNEYGIS	VIYADGIRTAYADDVK	GNNAGTFDV	0.82 0.54 0.21 0.65 0.73 0.83	0 of 18

The parent sequence was in this pool as ten entries: three were never detected, three once, and four in most replicates, with averages from 0.34 to 2.37. Three control strains display no target. For all heavy chain designs, 1% of the pairings with them gave a signal, with a median of 2.08 and one signal in twenty below 0.84, so weak values seen in few replicates may be background. The control count says in how many pairings with the empty strains this scFv gave a signal, with their mean in brackets. The authors averaged sequences with at least three values out of six and counted those with two or fewer as poor binders. The range of this assay differs from that of the first round, and the authors advise against merging the two.

Source: Li et al. 2023 (doi:10.1038/s41467-023-39022-2), MIT Lincoln Laboratory and A-Alpha Bio; data file from the FLAb repository.